Here are results for two compounds from PubChem BioAssay AID881 (National Center for Advancing Translational Sciences (NCATS), 2007).

Chains of the proteins cited; added tags and fusions are not shown.
UniProt O15296, whole entry: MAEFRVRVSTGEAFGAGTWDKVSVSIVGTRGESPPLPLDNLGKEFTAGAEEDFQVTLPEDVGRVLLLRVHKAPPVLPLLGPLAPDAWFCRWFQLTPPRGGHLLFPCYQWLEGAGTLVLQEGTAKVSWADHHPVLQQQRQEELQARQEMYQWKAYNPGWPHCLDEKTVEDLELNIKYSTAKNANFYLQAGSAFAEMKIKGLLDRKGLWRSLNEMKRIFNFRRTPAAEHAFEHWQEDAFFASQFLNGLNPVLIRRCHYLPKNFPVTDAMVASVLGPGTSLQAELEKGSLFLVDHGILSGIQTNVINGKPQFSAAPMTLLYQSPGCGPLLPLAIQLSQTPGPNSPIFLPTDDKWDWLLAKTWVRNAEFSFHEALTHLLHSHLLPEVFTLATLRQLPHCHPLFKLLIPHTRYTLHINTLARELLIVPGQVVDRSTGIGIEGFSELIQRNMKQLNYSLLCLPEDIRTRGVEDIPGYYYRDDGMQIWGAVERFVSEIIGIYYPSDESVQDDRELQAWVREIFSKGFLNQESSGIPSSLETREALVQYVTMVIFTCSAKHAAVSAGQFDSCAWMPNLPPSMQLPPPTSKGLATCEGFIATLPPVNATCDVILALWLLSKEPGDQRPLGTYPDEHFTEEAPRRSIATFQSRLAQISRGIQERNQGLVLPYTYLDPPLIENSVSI

The entries are a selection whose mix differs from that of the whole data set. Calls of active or inactive are those of the source. Calls come from the whole dose curve; as a rule, active = well fitted inhibition curve with a large enough effect; inconclusive = small, poorly fitted or top-dose-only effect; inactive = no such curve, though single readings can be large or run the other way.
% is set by controls: 0 for no effect and ±100 for the full control effect.

For this assay, the target named is Polyunsaturated fatty acid lipoxygenase ALOX15B (Homo sapiens) (UniProt O15296). Nature of the assay: qHTS Assay for Inhibitors of 15-hLO-2 (15-human lipoxygenase 2). Note: nearly all actives have a fitted effect of over 60% in size. As to conditions: purified 15hLO-2, xylenol orange hydroperoxide absorbance; at 57.1 µM (top of the series). The source says: Assay Overview: NIH Molecular Libraries Screening Centers Network [MLSCN] NIH Chemical Genomics Center [NCGC] MLSCN Grant: MH081283-01A1 PI Name: Holman, T.R., University of California, Santa Cruz Human lipoxygenase 15hLO-2 is a member of the closely related lipoxygenase family of enzymes which catalyze the site-specific oxidation of arachidonic acid to various hormone precursor molecules and as such is a candidate for drug development in a variety of disease areas, such as cancer and inflammation. Inhibition of 15hLO-2 activity was screened by utilizing arachidonic acid as a substrate. The extent of hydroperoxide product formation was measured by a secondary chromogenic reaction in which xylenol orange (XO, Sigma-Aldrich, cat. number 39,818-7) reacts with the ferric ions produced from the reaction between the hydroperoxide and ferrous ions. The Fe(III)-XO complex is characterized with red-shifted absorbance at 560 nm. A purified preparation of human 15hLO-2 was supplied by Professor Ted Holman, University of California, Santa Cruz.
Assay Protocol: Buffer: 25 mM Hepes pH 7.5, 0.01% Triton X-100. Reagents/Controls: Buffer in columns 3 and 4 as negative control (no enzyme). […] The absorbance at 405 and 573 nm were measured using ViewLux (Perkin-Elmer) High-throughput CCD imager and absorbance protocol settings. The 573-to-405 absorbance ratio was used to compute reaction progress.
As to `CN(CCCl)CCCl`, the activity change, negative = inhibition is inactive: -7.52%.

Take `O=[N+]([O-])C(Cl)(Cl)Cl`: the activity change, negative = inhibition was inactive: -2.95%.
